Measured values: PubChem BioAssay AID429 (Emory University Molecular Libraries Screening Center, 2006)
The list shows a part of the results, in another mix than the full data. Some results for these compounds are left out of this collection, so the calls shown say nothing about other tests. Calls of active or inactive are those of the source.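 The calls were made as follows: active = inhibition above 50%; inactive = the rest.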

target: Heat shock protein HSP 90-alpha (Homo sapiens) (UniProt P07900); assay: tumor Hsp90 inhibitors, primary screen, cell lysate, fluorescence polarization, NCI-N417 lysate (AID 429); conditions: NCI-N417 lysate Hsp90, Cy3B-geldanamycin FP displacement; at 30 µM; stronger effect = higher value;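 also: 0% = tracer plus lysate wells and 100% = tracer alone without lysate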

Row | SMILES | inhibition
1 | O=C(OC1CN2CCC1CC2)C(CO)(c1ccccc1)c1ccccc1 (configuration not stated) | inactive: -6.31%
2 | CN(C)c1cccc(C(=O)NCC2(N(C)C)CCCCC2)c1 | inactive: -1.22%
